Results reported in US20230190870A1, “Method for Treating Lysosomal Storage Diseases with Histatin Peptides” (THE BOARD OF TRUSTEES OF THE UNIVERSITY OF ILLINOIS, priority 2020, published 2023).
pKd: −log10 of the molar value.

The chains behind the UniProt entries cited, without tags or fusion partners.
UniProt Q5BJF2, whole entry: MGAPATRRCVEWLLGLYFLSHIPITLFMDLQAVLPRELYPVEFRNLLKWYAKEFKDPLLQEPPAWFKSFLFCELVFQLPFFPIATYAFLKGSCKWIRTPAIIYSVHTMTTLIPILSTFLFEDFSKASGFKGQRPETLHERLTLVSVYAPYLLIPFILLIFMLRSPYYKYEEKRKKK

Legend:
[1] = molecular target: T1, full-length recombinant TMEM97 (HEK293 cells) (Homo sapiens, UniProt Q5BJF2); experiment: Surface plasmon resonance, immobilized full-length TMEM97; format: binding; details: SPR; full length TMEM97 and GST-TMEM97 (108-176), values given 'respectively'
T1 construct: Recombinant full-length TMEM97 (also called MAC30, from HEK293 cells); purchased OriGene (Rockville, Md.); host or cells: HEK293 cells

[2] = molecular target: full length TMEM97 and GST-TMEM97 (108-176); experiment: SPR

Row | Compound | % Rmax [1] [%] | pKd [1] | pKd [2]
1 | CC(C)C[C@H](NC(=O)[C@H](Cc1ccc(O)cc1)NC(=O)[C@H](CC(N)=O)NC(=O)[C@H](CO)NC(=O)[C@H](CCCNC(=N)N)NC(=O)[C@H](Cc1ccc(O)cc1)NC(=O)CNC(=O)[C@H](CCCNC(=N)N)NC(=O)[C@H](Cc1c[nH]cn1)NC(=O)[C@H](CO)NC(=O)[C@H](Cc1c[nH]cn1)NC(=O)[C@H](Cc1c[nH]cn1)NC(=O)[C@H](CCCCN)NC(=O)[C@H](CCC(=O)O)NC(=O)[C@H](Cc1c[nH]cn1)NC(=O)[C@H](Cc1ccccc1)NC(=O)[C@H](CCCCN)NC(=O)[C@H](CCCNC(=N)N)NC(=O)[C@H](CCCCN)NC(=O)[C@H](Cc1ccc(O)cc1)NC(=O)CNC(=O)[C@H](Cc1c[nH]cn1)NC(=O)[C@H](Cc1c[nH]cn1)NC(=O)[C@H](CCCNC(=N)N)NC(=O)[C@H](CCCCN)NC(=O)[C@H](C)NC(=O)[C@H](Cc1c[nH]cn1)NC(=O)[C@H](CO)NC(=O)[C@@H](N)CC(=O)O)C(=O)N[C@@H](Cc1ccc(O)cc1)C(=O)N[C@@H](CC(=O)O)C(=O)N[C@@H](CC(N)=O)C(=O)O [Hst3] | 56 | 5.42 | –
2 | Histatin 3 (Hst3) (peptide) | – | – | 5.42
3 | Histatin 5 (Hst5) (peptide) | – | – | 5.33
4 | C[C@H](NC(=O)[C@H](Cc1c[nH]cn1)NC(=O)[C@H](CO)NC(=O)[C@@H](N)CC(=O)O)C(=O)N[C@@H](CCCCN)C(=O)N[C@@H](CCCNC(=N)N)C(=O)N[C@@H](Cc1c[nH]cn1)C(=O)N[C@@H](Cc1c[nH]cn1)C(=O)NCC(=O)N[C@@H](Cc1ccc(O)cc1)C(=O)N[C@@H](CCCCN)C(=O)N[C@@H](CCCNC(=N)N)C(=O)N[C@@H](CCCCN)C(=O)N[C@@H](Cc1ccccc1)C(=O)N[C@@H](Cc1c[nH]cn1)C(=O)N[C@@H](CCC(=O)O)C(=O)N[C@@H](CCCCN)C(=O)N[C@@H](Cc1c[nH]cn1)C(=O)N[C@@H](Cc1c[nH]cn1)C(=O)N[C@@H](CO)C(=O)N[C@@H](Cc1c[nH]cn1)C(=O)N[C@@H](CCCNC(=N)N)C(=O)NCC(=O)N[C@@H](Cc1ccc(O)cc1)C(=O)O [Hst5] | 72 | 5.33 | –
